# This is a selection; strong and weak results do not stand in their true shares. The source made the active and inactive calls. The call rests on the fitted dose curve; in most records, active means well fitted inhibition curve with a large enough effect; inconclusive means small, poorly fitted or top-dose-only effect; inactive means no such curve, though single readings can be large or run the other way.
# Protein sequences, listed by entry. Tags and fused reporters are not part of them.
# UniProt P38398, whole entry: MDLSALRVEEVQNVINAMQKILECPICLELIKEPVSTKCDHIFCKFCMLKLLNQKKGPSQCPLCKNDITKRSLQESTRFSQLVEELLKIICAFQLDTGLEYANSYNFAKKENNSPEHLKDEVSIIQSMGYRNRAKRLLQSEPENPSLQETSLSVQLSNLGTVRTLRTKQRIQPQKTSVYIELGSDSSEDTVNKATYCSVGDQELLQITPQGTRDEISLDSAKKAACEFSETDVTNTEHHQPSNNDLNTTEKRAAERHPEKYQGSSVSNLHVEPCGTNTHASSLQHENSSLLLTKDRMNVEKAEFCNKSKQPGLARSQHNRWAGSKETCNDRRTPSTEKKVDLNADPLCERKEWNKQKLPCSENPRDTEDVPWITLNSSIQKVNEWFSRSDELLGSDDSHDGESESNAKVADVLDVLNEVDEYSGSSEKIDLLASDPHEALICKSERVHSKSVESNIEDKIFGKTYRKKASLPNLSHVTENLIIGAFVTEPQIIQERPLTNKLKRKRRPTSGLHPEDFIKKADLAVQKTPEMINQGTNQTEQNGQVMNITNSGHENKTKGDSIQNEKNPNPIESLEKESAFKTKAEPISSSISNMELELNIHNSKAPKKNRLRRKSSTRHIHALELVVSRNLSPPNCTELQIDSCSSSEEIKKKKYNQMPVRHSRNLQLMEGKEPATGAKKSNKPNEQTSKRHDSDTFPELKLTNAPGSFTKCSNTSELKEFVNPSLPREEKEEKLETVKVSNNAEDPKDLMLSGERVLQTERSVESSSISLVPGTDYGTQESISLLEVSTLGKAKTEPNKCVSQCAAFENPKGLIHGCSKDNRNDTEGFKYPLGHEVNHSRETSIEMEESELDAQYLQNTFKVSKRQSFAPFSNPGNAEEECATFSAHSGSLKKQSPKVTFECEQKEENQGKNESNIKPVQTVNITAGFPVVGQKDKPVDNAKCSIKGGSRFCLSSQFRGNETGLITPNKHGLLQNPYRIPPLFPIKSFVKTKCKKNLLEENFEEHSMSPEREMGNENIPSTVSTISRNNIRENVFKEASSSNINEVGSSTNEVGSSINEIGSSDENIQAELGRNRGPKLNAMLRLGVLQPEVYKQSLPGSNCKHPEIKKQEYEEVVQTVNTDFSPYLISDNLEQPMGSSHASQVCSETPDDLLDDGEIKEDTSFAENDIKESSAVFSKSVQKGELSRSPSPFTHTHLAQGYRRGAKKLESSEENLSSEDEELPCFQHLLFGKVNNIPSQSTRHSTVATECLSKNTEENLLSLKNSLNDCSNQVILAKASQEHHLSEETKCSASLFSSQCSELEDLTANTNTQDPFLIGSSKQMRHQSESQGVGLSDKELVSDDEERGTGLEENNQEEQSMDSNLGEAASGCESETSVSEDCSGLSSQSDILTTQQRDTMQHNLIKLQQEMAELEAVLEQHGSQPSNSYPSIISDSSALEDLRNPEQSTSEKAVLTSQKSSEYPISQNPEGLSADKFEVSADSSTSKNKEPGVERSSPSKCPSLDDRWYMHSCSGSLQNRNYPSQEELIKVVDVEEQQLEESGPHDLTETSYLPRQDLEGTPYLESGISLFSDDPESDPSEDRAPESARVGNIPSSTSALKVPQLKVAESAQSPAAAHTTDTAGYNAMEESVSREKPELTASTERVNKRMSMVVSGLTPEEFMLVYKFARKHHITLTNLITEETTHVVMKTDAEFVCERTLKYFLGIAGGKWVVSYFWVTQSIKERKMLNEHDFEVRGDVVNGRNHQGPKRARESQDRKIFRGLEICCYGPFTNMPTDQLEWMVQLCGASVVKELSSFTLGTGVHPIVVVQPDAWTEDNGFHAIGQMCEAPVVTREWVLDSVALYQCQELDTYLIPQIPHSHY
# Target: Breast cancer type 1 susceptibility protein (Homo sapiens) (UniProt P38398)
# Assay: qHTS Assay for Inhibitors of BRCT-Phosphoprotein Interaction (Red Fluorophore)
# Details: BRCT-phosphopeptide binding, red fluorescence polarization; at 76.9 µM (top of the series) unless noted
# Protocol: NIH Molecular Libraries Screening Centers Network [MLSCN]
# NIH Chemical Genomics Center [NCGC]
# PI Name: Natarajan, Amarnath; University of Texas
# A complex of BRCT (C-terminal portion of BRCA1, MW ~35 kDa, His-tagged) and fluorescently labeled pBACH1 phosphorylated 10 aa peptide fragment of BACH1, a helicase implicated in DNA repair, is incubated with library members. Inhibitors of BRCT-pBACH1 binding are detected by a decrease in the fluorescence polarization (FP) of the fluorophore. In order to minimize the effect of fluorescence artifacts and to increase the overall robustness of the screen, the compound library members were incubated in separate reactions with rhodamine-labeled probe-protein complexes. Protein and labeled probes were supplied by Dr. Amarnath Natarajan, Department of Pharmacology and Toxicology, University of Texas Medical Branch Galveston, TX.
# Assay Buffer: 16mM Na2HPO4, 4 mM NaH2PO4, 150 mM NaCl, 1 mM EDTA, 1 mM DTT, 0.02% NaN3, and 0.01% Tween 20 at pH 7.3.
# Assay Controls: 100 nM TAMRA labeled decapeptide dispensed into columns 3 and 4 to generate negative control (full inhibition of
# binding, -100 % activity). 100 nM labeled decapeptide/100 nM protein in columns 1, 2, 5 - 48. Titration of unlabeled decapeptide control (from 10 mM, then 1:2 dilution in duplicate) pin-transferred to column 2, rows 1 to 16. Column 1 is neutral.
# Three uL of reagents were dispensed to 1536-well Greiner black solid-bottom plates. Compounds and controls (23 nL) were transferred via Kalypsys PinTool. The plates were incubated for 12 min at room temperature, and then read on ViewLux (Perkin-Elmer) High-throughput CCD imager using BODIPY for the rhodamine-labeled decapeptide probe polarization filter sets. During dispense, reagent bottles were kept submerged into 4 deg C water bath and all liquid lines were covered with aluminum foil to minimize probe and protein degradation. All screening operations were performed on a Kalypsys robotic system (Kalypsys, Inc., San Diego, CA) containing one RX-130 and two RX-90 anthropomorphic robotic arms. The timing and order of assay plates passing through the screening system were adjusted such that each compound library plate was assayed against the fluorescein- and rhodamine-labeled assay systems at immediately adjacent time points.
# On the % scale 0 is the no-effect control and ±100 the full control effect.
row,SMILES,"activity change, negative = inhibition"
1,N#CC1(Nc2ccccc2)CCN(CCc2ccccc2)CC1,inactive: 1.74%
2,CCOP(=O)(Cl)Cl,inactive: 0.999%
3,NC1CCCCC1.NP(=O)(O)N(CCCl)CCCl,inactive: -0.645% [at 15.4 µM]
4,O=C(OC1CN2CCC1CC2)C1c2ccccc2Oc2ccccc21 (stereo unspecified),inactive: 2.23%
5,COc1ccc(NC2CCN(CCc3ccccc3)CC2)c(OC)c1,inactive: -2.21%
6,Fc1ccccc1NC1CCN(Cc2ccccc2)CC1,inactive: 1.39%
7,CCOc1ncccc1C(=O)NCC1(N2CCOCC2)CCCCC1,inactive: -0.166%
8,O=C(O)C1(Nc2ccccc2)CCN(Cc2ccccc2)CC1,inactive: -0.39% [at 15.4 µM]
9,CCC(CO)(C(=O)OC1CN2CCC1CC2)c1ccccc1 (stereo unspecified),inactive: -1.93%
10,N/C(=N\O)c1c(N)no[n+]1[O-],inactive: -1.27%
11,ClCCOP(OCCCl)OCCCl,inactive: 0.277%

# Reference: PubChem BioAssay AID892 (National Center for Advancing Translational Sciences (NCATS), 2007)
